Test [1] has as its target T1, AKR1C3 (Homo sapiens, UniProt P42330).
T1 sequence (P42330 1-323): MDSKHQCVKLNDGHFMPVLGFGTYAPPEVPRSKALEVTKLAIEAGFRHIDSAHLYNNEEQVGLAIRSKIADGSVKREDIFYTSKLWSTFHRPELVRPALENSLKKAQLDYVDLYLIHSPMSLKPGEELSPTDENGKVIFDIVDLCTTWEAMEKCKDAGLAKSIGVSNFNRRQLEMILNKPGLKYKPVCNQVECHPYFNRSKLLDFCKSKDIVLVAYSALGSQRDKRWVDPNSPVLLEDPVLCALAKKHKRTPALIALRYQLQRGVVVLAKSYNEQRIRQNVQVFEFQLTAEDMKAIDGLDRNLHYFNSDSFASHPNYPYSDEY
As to the kind of experiment: Inhibition of testosterone production in LNCaP-AKR1C3 cells. The test is classed as cell-based. The following applies: for Percent Testosterone Formed: LNCaP-AKR1C3 cells, 100 nM [^3H]-4-androstene-3,17-dione, 48 h.

In test [2] the target is T1, AKR1C3. As to the kind of experiment: Inhibition of Δ^4-AD reduction to testosterone by recombinant AKR1C3. The test is classed as biochemical.

Regarding `COc1ccc2[nH]c(C(=O)N3CCC(CC(C)(C)O)CC3)cc2c1` [ASP9521, 1-(-{1-[(5-methoxy-1H-indol-2-yl)carbonyl]piperidin-4-yl}-2-methylpropan-2-ol), reference compound], the “Percent Testosterone Formed” value came to 12.24% in test [1] (10 μM inhibitor) and 0% in test [1] (30 μM inhibitor). For the same compound, in test [1] (read-out: Percent inhibition of testosterone production), the inhibition (commonly how much of the control response was suppressed) at 30 µM is 100%. Further, the “Pattern of inhibition of Δ^4-AD reduction” value in test [2] is “competitive inhibition”.

For the origin of these results see PMC6625945 (The Journal of steroid biochemistry and molecular biology, 2019).
